The conditions of data set [1]: room temperature (24-25° C.); slope of solubility versus reciprocal sodium cation concentration.
The conditions of data set [2]: 10 mg/mL in 0.12% NaCl, RT (24-26° C.).

The results in this text go back to patent US20090263381A1, “COMBINATION OF DEHYDROEPIANDROSTERONE OR DEHYDROEPIANDROSTERONE-SULFATE WITH AN ANTI-IGE ANTIBODY FOR TREATMENT OF ASTHMA OR CHRONIC OBSTRUCTIVE PULMONARY DISEASE” (priority 2003, published 2009).

For “sodium dehydroepiandrostenone sulfate [DHEA-S]”, the “equilibrium constant Ksp” value in data set [1] is given as 2236 mM^2. In addition, in data set [2], the “appearance of solution on storage” value is “slight precipitate is observed on the third day”.
